Consider 1 compound from patent US10167279B2 (NOVARTIS AG, priority 2014, dated 2019).

Amino acid sequences for entries named in this document (tags omitted).
UniProt P04049, whole entry Y340E/Y341E: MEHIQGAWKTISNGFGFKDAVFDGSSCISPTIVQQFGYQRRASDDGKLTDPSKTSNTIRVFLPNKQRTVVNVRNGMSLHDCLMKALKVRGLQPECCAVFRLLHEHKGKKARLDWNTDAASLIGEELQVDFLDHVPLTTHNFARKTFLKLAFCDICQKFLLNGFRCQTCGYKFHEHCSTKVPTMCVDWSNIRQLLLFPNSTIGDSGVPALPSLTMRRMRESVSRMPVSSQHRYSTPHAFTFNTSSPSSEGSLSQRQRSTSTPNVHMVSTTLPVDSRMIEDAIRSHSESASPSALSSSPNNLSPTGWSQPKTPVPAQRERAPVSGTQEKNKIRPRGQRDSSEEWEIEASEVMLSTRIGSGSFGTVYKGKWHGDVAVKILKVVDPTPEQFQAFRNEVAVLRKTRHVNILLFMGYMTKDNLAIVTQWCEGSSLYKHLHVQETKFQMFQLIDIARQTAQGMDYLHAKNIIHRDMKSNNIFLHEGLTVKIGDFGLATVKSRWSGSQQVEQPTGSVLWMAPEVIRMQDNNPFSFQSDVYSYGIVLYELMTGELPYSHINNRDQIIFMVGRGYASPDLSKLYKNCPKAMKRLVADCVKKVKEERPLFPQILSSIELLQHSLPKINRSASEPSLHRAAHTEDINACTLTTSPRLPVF

In the experiment the target is C-Raf FL (Homo sapiens (Human), UniProt P04049, Y340E/Y341E). In words: In vitro Raf activity determination (Alpha Screen, phospho-MEK), C-Raf FL (full length, Y340E/Y341E). The format is biochemical. Particulars: ATP 1 μM; 60 min pre-incubation; 1 hour reaction; column head does not say FL or TR. An excerpt:
The activity of a compound according to the present invention can be assessed by well-known in vitro & in vivo methods. Raf inhibition data provided herein was obtained using the following procedures.
Sf9 cells co-expressing both proteins were lysed and subjected to immobilized nickel chromatography and eluted with Imidazole. A second column (StrepII binding column) was used and eluted with desthiobiotin. Protein Tags were removed using Prescission enzyme and the protein was further purified using a flowthrough step to remove tags.
C-Raf TR refers to a truncated C-Raf protein, a Δ1-324 deletion mutant. C-Raf FL refers to the full-length C-Raf protein.
Full length MEK1 with an inactivating K97R ATP binding site mutation is utilized as a RAF substrate. The MEK1 cDNA was subcloned with an N-terminal (his)6 tag into a vector for E. Coli expression. […]
Assay protocol: Raf and biotinylated Mek (kinase dead) were combined at 2× final concentrations in assay buffer (50 mM Tris, pH 7.5, 15 mM MgCl2, 0.01% BSA and 1 mM DTT) and dispensed […] per well in assay plates (Greiner white 384 well assay plates #781207) containing […] of 40× of a Raf kinase inhibitor test compound diluted in 100% DMSO. […] A lid was placed on top of the plate and incubated for 1 hour at room temperature, after which the luminescence was read on a PerkinElmer Envision instrument. […]

Molecules are shown by their SMILES.

`COc1ncc(-c2cc(NC(=O)c3cc(C(C)(F)F)ccn3)cnc2C)cc1C1(O)COC1` [Example 91] had a half-inhibitory concentration (IC50) of 2.39 nM.

As a reminder, the IC50 is the concentration that gives 50% inhibition. The low end stands for higher potency, the high end for lower potency.
